We go through nine molecules from PubChem BioAssay (NCI).

Each structure is given as a SMILES string. The list shows a part of the results, in another mix than the full data.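 Activity criterion: percent growth below 10, measured after cells in 96-well plates were exposed to a single compound concentration for 48 hours.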 Active and inactive are the calls of the source.

Among the test systems are SK-MEL-2 melanoma; EKVX NSCLC; SN12C renal; UO-31 renal; TK-10 renal; ACHN renal; CAKI-1 renal; A498 renal; CCRF-CEM leukemia; MOLT-4 leukemia; SR leukemia; OVCAR-8 ovarian; OVCAR-5 ovarian; OVCAR-4 ovarian; SK-OV-3 ovarian; IGROV1 ovarian; OVCAR-3 ovarian; HS 578T breast; HL-60(TB) leukemia; RPMI-8226 leukemia.
Experiment in all cases: NCI-60 one-dose screen, 48 h (100 = growth as untreated, 0 = no growth, -100 = all killed)
Conditions in all cases: 10 µM unless noted

Turning to `COC(=O)C1=C(C)O[P@](=O)(OC)CCC1c1ccccc1` (stereo partly drawn), the growth in the assay on SK-MEL-2 melanoma was inactive: 107%; in the assay with EKVX NSCLC, inactive: 100%; with SN12C renal it was inactive: 99.8%; with UO-31 renal, inactive: 92.4%; with TK-10 renal it was inactive: 105%; in the assay on ACHN renal, inactive: 105%. For the same molecule, the growth in the assay on CAKI-1 renal is inactive: 97.2%; in the assay on A498 renal, inactive: 95.9%; in the assay with CCRF-CEM leukemia, inactive: 110%; in the assay on MOLT-4 leukemia, inactive: 90.4%; with SR leukemia it was inactive: 102%; in the assay with OVCAR-8 ovarian, inactive: 91.9%. Moreover, the growth is inactive: 87.8% in the assay with OVCAR-5 ovarian; inactive: 105% in the assay on OVCAR-4 ovarian; inactive: 103% in the assay on SK-OV-3 ovarian; inactive: 99.1% with IGROV1 ovarian; inactive: 129% in the assay with OVCAR-3 ovarian; inactive: 96.9% in the assay on HS 578T breast.
As for `[N-]=[N+]=NS(=O)(=O)c1ccc([N+](=O)[O-])cc1`, the growth in the assay on SK-MEL-2 melanoma was inactive: 103%; in the assay on EKVX NSCLC, inactive: 101%; in the assay with SN12C renal, inactive: 97.9%; with UO-31 renal, inactive: 92.9%; in the assay with TK-10 renal, inactive: 115%; in the assay with ACHN renal, inactive: 108%. In addition, the growth was inactive: 89.2% with CAKI-1 renal; inactive: 85.2% in the assay on A498 renal; inactive: 99.9% in the assay with HL-60(TB) leukemia; inactive: 106% with MOLT-4 leukemia; inactive: 103% with SR leukemia; inactive: 108% in the assay with RPMI-8226 leukemia. For the same molecule, the growth in the assay with OVCAR-8 ovarian was inactive: 99.5%; in the assay with OVCAR-5 ovarian it was inactive: 113%; in the assay with OVCAR-4 ovarian, inactive: 101%; in the assay with SK-OV-3 ovarian, inactive: 126%; in the assay on IGROV1 ovarian, inactive: 114%; in the assay with OVCAR-3 ovarian it was inactive: 105%. Besides, the growth in the assay on HS 578T breast was inactive: 93.7%.
For the molecule `O=P(Cl)(N1CCCCCC1)N1CCCCCC1`, the growth with SK-MEL-2 melanoma is inactive: 103%; with EKVX NSCLC, inactive: 97.5%; in the assay with SN12C renal, inactive: 101%; in the assay with UO-31 renal, inactive: 94.8%; with TK-10 renal it was inactive: 96.9%; in the assay on ACHN renal, inactive: 103%. In addition, the growth in the assay on CAKI-1 renal is inactive: 99.6%; in the assay with HL-60(TB) leukemia, inactive: 100%; in the assay with CCRF-CEM leukemia it was inactive: 113%; with MOLT-4 leukemia it was inactive: 102%; with SR leukemia, inactive: 104%; in the assay with RPMI-8226 leukemia, inactive: 108%. In addition, the growth in the assay on OVCAR-8 ovarian is inactive: 98.9%; with OVCAR-5 ovarian it was inactive: 104%; with OVCAR-4 ovarian, inactive: 113%; in the assay on SK-OV-3 ovarian it was inactive: 123%; in the assay with IGROV1 ovarian, inactive: 107%; with OVCAR-3 ovarian, inactive: 116%. The growth in the assay with HS 578T breast is inactive: 113%.
With `O=[N+]([O-])c1cccc(Oc2ccc([N+](=O)[O-])cc2[N+](=O)[O-])c1`, the growth was active: -2.18% in the assay on SK-MEL-2 melanoma; inactive: 107% in the assay with EKVX NSCLC; inactive: 23.1% with SN12C renal; inactive: 20.1% in the assay on UO-31 renal; inactive: 49.9% in the assay with TK-10 renal; inactive: 25.7% in the assay on ACHN renal. The growth in the assay with CAKI-1 renal is active: -3.1%; in the assay with A498 renal, inactive: 105%; with HL-60(TB) leukemia, active: -10.2%; in the assay with MOLT-4 leukemia, inactive: 25.5%; with SR leukemia, inactive: 14.9%; with RPMI-8226 leukemia it was inactive: 18.5%. For the same molecule, the growth with OVCAR-8 ovarian was active: 7.87%; in the assay with OVCAR-5 ovarian it was inactive: 57.3%; in the assay with OVCAR-4 ovarian it was inactive: 45.3%; in the assay with SK-OV-3 ovarian it was inactive: 16.5%; in the assay on IGROV1 ovarian, active: -26.1%; in the assay with OVCAR-3 ovarian, inactive: 17.5%. In addition, in the assay with HS 578T breast, the growth was inactive: 20.3%.
Regarding `NC(=O)c1[nH]cnc1/N=N\N(CCCl)CCCl`, the growth was inactive: 89.6% with SK-MEL-2 melanoma; inactive: 167% in the assay with EKVX NSCLC; inactive: 115% in the assay with SN12C renal; inactive: 81.7% with UO-31 renal; inactive: 137% in the assay on TK-10 renal; inactive: 128% with ACHN renal. Also, the growth is inactive: 121% in the assay on CAKI-1 renal; inactive: 117% in the assay with A498 renal; inactive: 113% with HL-60(TB) leukemia; inactive: 98.3% in the assay with CCRF-CEM leukemia; inactive: 105% in the assay on MOLT-4 leukemia; inactive: 122% in the assay on SR leukemia. Moreover, the growth in the assay on RPMI-8226 leukemia is inactive: 111%; in the assay on OVCAR-8 ovarian, inactive: 109%; in the assay on OVCAR-5 ovarian, inactive: 91.4%; in the assay on OVCAR-4 ovarian it was inactive: 99.7%; with SK-OV-3 ovarian, inactive: 102%; with OVCAR-3 ovarian, inactive: 123%. In the assay on HS 578T breast, the growth is inactive: 120%.
On to `O=[N+]([O-])c1ccc(CCCCCCc2ccc([N+](=O)[O-])cc2[N+](=O)[O-])c([N+](=O)[O-])c1`, for which the growth is inactive: 103% with SK-MEL-2 melanoma; inactive: 88.4% in the assay with EKVX NSCLC; inactive: 91.8% in the assay with SN12C renal; inactive: 56.4% in the assay on UO-31 renal; inactive: 119% with TK-10 renal; inactive: 103% with ACHN renal. The growth is inactive: 83.4% in the assay with CAKI-1 renal; inactive: 69.7% in the assay on A498 renal; inactive: 85.3% with CCRF-CEM leukemia; inactive: 19.7% in the assay with MOLT-4 leukemia; inactive: 79.7% in the assay with SR leukemia; inactive: 82.3% with RPMI-8226 leukemia. Besides, the growth in the assay with OVCAR-8 ovarian is inactive: 96.2%; with OVCAR-5 ovarian, inactive: 112%; in the assay on OVCAR-4 ovarian it was inactive: 81.7%; in the assay with SK-OV-3 ovarian, inactive: 111%; in the assay with IGROV1 ovarian, inactive: 99.5%; with OVCAR-3 ovarian it was inactive: 92.8%. Besides, in the assay with HS 578T breast, the growth was inactive: 88.6%.
`NCCSP(=O)(O)O`: the growth in the assay on SK-MEL-2 melanoma was inactive: 110%; in the assay on EKVX NSCLC it was inactive: 124%; in the assay on SN12C renal, inactive: 97.6%; in the assay with UO-31 renal it was inactive: 96.8%; in the assay with TK-10 renal, inactive: 114%; with ACHN renal, inactive: 110%. Moreover, the growth was inactive: 100% with CAKI-1 renal; inactive: 104% with A498 renal; inactive: 98.6% in the assay on HL-60(TB) leukemia; inactive: 38.3% in the assay on CCRF-CEM leukemia; inactive: 124% in the assay with MOLT-4 leukemia; inactive: 106% in the assay with RPMI-8226 leukemia. For the same molecule, the growth is inactive: 104% with OVCAR-8 ovarian; inactive: 103% in the assay with OVCAR-5 ovarian; inactive: 111% in the assay on OVCAR-4 ovarian; inactive: 109% in the assay with SK-OV-3 ovarian; inactive: 113% in the assay with IGROV1 ovarian; inactive: 109% with OVCAR-3 ovarian. The growth in the assay on HS 578T breast is inactive: 105%.
For the molecule `CC(C)c1nc(Nc2ccccc2)n(P(=O)(N(C)C)N(C)C)n1`, the growth in the assay with SK-MEL-2 melanoma is inactive: 103%; with EKVX NSCLC, inactive: 106%; in the assay with SN12C renal, inactive: 98.9%; with UO-31 renal, inactive: 87.8%; in the assay with TK-10 renal it was inactive: 102%; with ACHN renal it was inactive: 104%. The growth in the assay with CAKI-1 renal was inactive: 102%; in the assay with A498 renal, inactive: 92.2%; in the assay with HL-60(TB) leukemia it was inactive: 107%; with CCRF-CEM leukemia it was inactive: 95%; with MOLT-4 leukemia, inactive: 101%; with SR leukemia, inactive: 99.2%. The growth with RPMI-8226 leukemia was inactive: 103%; in the assay on OVCAR-5 ovarian, inactive: 101%; in the assay on OVCAR-4 ovarian, inactive: 91.2%; with SK-OV-3 ovarian, inactive: 96.9%; in the assay on IGROV1 ovarian, inactive: 109%; in the assay with OVCAR-3 ovarian, inactive: 111%. Also, the growth in the assay with HS 578T breast was inactive: 97.3%.
For the molecule `Cc1ccccc1OP(=O)(Cl)Oc1ccccc1C`, the growth was inactive: 92.8% with SK-MEL-2 melanoma; inactive: 110% with EKVX NSCLC; inactive: 93.7% in the assay with SN12C renal; inactive: 85.3% with UO-31 renal; inactive: 93.8% in the assay on TK-10 renal; inactive: 104% with ACHN renal. In addition, the growth in the assay on CAKI-1 renal is inactive: 103%; in the assay with A498 renal, inactive: 93.6%; in the assay on HL-60(TB) leukemia, inactive: 98.1%; in the assay with MOLT-4 leukemia, inactive: 88.9%; with SR leukemia it was inactive: 86.8%; in the assay with OVCAR-8 ovarian it was inactive: 105%. Also, the growth was inactive: 104% in the assay with OVCAR-5 ovarian; inactive: 97.5% with SK-OV-3 ovarian; inactive: 96.5% in the assay on IGROV1 ovarian; inactive: 118% in the assay with OVCAR-3 ovarian; inactive: 119% with HS 578T breast.
